Reference: article PMC10656230, “Disruption of the productive encounter complex results in dysregulation of DIAPH1 activity” (The Journal of Biological Chemistry, 2023)
Entries after “also recorded” stand apart in the source; their conditions may differ.

The chains behind the UniProt entries cited, without tags or fusion partners. Residues count along the entry.
UniProt O60610, 142-380 E326G/E327A: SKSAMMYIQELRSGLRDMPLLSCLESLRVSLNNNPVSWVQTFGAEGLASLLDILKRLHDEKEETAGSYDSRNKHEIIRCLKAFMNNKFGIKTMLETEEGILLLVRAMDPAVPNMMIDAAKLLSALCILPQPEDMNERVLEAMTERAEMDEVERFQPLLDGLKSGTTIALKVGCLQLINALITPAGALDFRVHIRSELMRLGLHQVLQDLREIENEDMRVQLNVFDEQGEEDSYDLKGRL

How the values were obtained:
DID^E326G/E327A [1] = biological target: T1, DID^E326G/E327A (Homo sapiens, UniProt O60610, E326G/E327A); assay: Tryptophan fluorescence titration, DID^E326G/E327A–DAD^M1199L binding; conditions: vs WT DID
T1 construct: N-terminal his-tagged DID, residues 142 to 380 from human DIAPH1 (UniProt O60610); made in house; host or cells: Escherichia coli BL21(DE3), by the same protocol as DID

DID^E326G/E327A [2] = biological target: T1, DID^E326G/E327A; assay: Stopped flow fluorescence association kinetics, DID^E326G/E327A–DAD^M1199L; format: binding; conditions: DID^E326G/E327A vs WT DID
[3] = tested on: vascular smooth muscle cells (RAGE); conditions: RAGE stimulation; cited from earlier work
Protocol: To further test the functional importance of the RRKR motif, we examined RAGE signal transduction ([7], [8], [9]). […] Human SMCs were transfected with plasmids-expressing yellow fluorescent protein (YFP), DIAPH1-YFP, DIAPH1^ΔDAD-YFP, and DIAPH1^E326G/E327A-YFP, and the cells were treated with 1 μM of CML-HSA (Fig. 6C). […] Note that efficient cellular migration relies on regulation of actin polymerization/depolymerization and, thus, dysregulation leads to reduced migration ([49], [50], [51]).

Substance	decrease in binding affinity on neutralizing the DID cavity (E326G/E327A) (DID^E326G/E327A [1]) [fold]	decrease in kon (association rate constant) (DID^E326G/E327A [2]) [fold]	migration of vascular smooth muscle cells [3]
DETGVMDSLLEALQSGAAFRRKRGPRQAN [DAD, 29-residue DAD peptide corresponding to WT residues 1194 to 1222 (UniProt O60610)]	5	4	–
carboxymethyllysine human serum albumin [CML-HSA]	–	–	DIAPH1-dependent increase in migration of vascular smooth muscle cells; also recorded: SMC migration is increased
